Data reported in IntAct's records for PubMed 26766587.

B1: Myc proto-oncogene protein (Homo sapiens), P01106 (parent)
chain: MDFFRVVENQQPPATMPLNVSFTNRNYDLDYDSVQPYFYCDEEENFYQQQQQSELQPPAPSEDIWKKFELLPTPPLSPSRRSGLCSPSYVAVTPFSLRGDNDGGGGSFSTADQLEMVTELLGGDMVNQSFICDPDDETFIKNIIIQDCMWSGFSAAAKLVSEKLASYQAARKDSGSPNPARGHSVCSTSSLYLQDLSAAASECIDPSVVFPYPLNDSSSPKSCASQDSSAFSPSSDSLLSSTESSPQGSPEPLVLHEETPPTTSSDSEEEQEDEEEIDVVSVEKRQAPGKRSESGSPSAGGHSKPPHSPLVLKRCHVSTHQHNYAAPPSTRKDYPAAKRVKLDSVRVLRQISNNRKCTSPRSSDTEENVKRRTHNVLERQRRNELKRSFFALRDQIPELENNEKAPKVVILKKATAYILSVQAEEQKLISEEDLLRKRREQLKHKLEQLRNSCA
partner: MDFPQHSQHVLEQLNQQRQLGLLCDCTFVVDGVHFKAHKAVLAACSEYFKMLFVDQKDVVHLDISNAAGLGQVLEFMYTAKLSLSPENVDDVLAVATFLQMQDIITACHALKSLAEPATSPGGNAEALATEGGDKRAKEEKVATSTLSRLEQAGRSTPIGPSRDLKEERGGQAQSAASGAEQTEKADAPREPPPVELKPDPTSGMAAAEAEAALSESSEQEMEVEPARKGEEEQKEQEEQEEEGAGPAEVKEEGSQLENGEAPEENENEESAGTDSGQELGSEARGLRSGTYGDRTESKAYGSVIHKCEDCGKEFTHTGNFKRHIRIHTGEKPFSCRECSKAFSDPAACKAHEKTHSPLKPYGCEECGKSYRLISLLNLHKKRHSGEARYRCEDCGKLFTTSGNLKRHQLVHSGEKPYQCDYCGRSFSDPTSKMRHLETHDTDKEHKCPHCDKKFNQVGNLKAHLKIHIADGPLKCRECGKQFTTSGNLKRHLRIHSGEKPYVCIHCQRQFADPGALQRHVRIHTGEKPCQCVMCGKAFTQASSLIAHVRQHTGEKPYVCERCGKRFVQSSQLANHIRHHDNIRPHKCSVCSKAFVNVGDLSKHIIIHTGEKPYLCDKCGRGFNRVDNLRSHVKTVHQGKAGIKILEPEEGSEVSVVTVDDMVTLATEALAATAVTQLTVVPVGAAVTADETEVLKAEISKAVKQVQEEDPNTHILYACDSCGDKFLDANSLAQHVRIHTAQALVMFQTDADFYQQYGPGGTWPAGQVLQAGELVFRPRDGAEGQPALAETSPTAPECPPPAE

Variants of: B1
Settings: with zbt17_human ZBTB17, Q13105

effect of a mutation on the interaction	Variant
decreasing interaction strength	V409D
